The target in experiment [1] is T1, rFIXa (human) (Homo sapiens, UniProt P00740). The note with it: 25% additive; fluorogenic MeSO2-D-CHA-Gly-Arg-AMC 0.51 mmol/l; 0.08 μmol/l rFIXa; pH 7.4. An excerpt: The stimulation of human rFIXa by ethanol and ethylene glycol was examined using the peptide substrates MeSO2 -D-HHT-Gly-Arg-pNA (Pefachrom tPA, Pentapharm Ltd., Basel, Switzerland), MOC-D-Nle-Gly-Arg-pNA (Chromozym X, Boehringer Mannheim GmbH, Mannheim, Germany, Cat.No. 789763), MeSO2 -D-CHG-Gly-Arg-pNA (Pentapharm Ltd., Basel, Switzerland), MeSO2 -D-CHA-Gly-Arg-pNA (Pentapharm Ltd., Basel, Switzerland) and MeSO2 -D-CHA-Gly-Arg-AMC (Pentapharm Ltd., Basel, Switzerland).
Test Mixture Fluorogenic (Concentration in the Test)
0.51 mmol/l MeSO2 -D-CHA-Gly-Arg-AMC
0.08 μmol/l rFIXa (human)

The chains behind the UniProt entries cited, without tags or fusion partners. Residues count along the entry.
UniProt P00740, 131-226: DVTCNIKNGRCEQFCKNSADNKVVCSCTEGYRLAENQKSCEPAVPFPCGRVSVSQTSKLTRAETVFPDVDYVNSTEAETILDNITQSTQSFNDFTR
UniProt P00740, 227-461: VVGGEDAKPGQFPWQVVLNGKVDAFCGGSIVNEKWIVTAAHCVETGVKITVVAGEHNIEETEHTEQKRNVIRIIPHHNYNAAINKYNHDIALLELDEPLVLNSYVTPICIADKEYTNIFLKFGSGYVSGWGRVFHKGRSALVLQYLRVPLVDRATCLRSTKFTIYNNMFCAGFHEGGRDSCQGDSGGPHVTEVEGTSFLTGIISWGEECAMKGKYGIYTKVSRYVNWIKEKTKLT

The target of experiment [2] is T1, rFIXa (human). Description: Influence of alcohols and organic solvents on the activity of rFIXa, chromogenic peptide substrates. In kind it is biochemical. Further details: coding for the FIX protease domain from amino acid position 181 to 415; Met (ATG start codon) (N); made in house. As to conditions: 50% additive; MOC-D-Nle-Gly-Arg-pNA 0.82 mmol/l; 0.48 μmol/l rFIXa; pH 7.4. How it is done:
The reaction was started by adding FIXa.
MeSO2 -D-HHT-Gly-Arg-pNA→MeSO2 -D-HHT-Gly-Arg+pNA measurement signal: pNA
0.48 μmol/l rFIXa (human)
0-50% (alcohol or organic solvent)
The ratio V/V0 was calculated to illustrate the stimulation of the catalytic activity of rFIXa.
V0, reaction rate without additives
V, reaction rate in the presence of additives
Test Mixture Chromogenic (Concentration in the Test)

The source of these data is patent US6087119A, “Method for determining the catalytic activity of factor IXa” (Roche Diagnostics GmbH, priority 1996, dated 2000).

SMILES strings stand for the structures. Where two headings read alike, the source gives them in different places.

With `CCO` [Ethanol], the V/V0 in experiment [1] is 1.37; in experiment [2], 1.39.
